Results as given in PMC11472320, “Computationally Driven Discovery of a BCR-ABL1 Kinase Inhibitor with Activity in Multidrug-Resistant Chronic Myeloid Leukemia” (Journal of Medicinal Chemistry, 2024).

Amino acid sequences for entries named in this document (tags omitted). A change or cut given only in a name is not applied to a line headed by its entry. Residues count along the entry.
UniProt Q9NRM7: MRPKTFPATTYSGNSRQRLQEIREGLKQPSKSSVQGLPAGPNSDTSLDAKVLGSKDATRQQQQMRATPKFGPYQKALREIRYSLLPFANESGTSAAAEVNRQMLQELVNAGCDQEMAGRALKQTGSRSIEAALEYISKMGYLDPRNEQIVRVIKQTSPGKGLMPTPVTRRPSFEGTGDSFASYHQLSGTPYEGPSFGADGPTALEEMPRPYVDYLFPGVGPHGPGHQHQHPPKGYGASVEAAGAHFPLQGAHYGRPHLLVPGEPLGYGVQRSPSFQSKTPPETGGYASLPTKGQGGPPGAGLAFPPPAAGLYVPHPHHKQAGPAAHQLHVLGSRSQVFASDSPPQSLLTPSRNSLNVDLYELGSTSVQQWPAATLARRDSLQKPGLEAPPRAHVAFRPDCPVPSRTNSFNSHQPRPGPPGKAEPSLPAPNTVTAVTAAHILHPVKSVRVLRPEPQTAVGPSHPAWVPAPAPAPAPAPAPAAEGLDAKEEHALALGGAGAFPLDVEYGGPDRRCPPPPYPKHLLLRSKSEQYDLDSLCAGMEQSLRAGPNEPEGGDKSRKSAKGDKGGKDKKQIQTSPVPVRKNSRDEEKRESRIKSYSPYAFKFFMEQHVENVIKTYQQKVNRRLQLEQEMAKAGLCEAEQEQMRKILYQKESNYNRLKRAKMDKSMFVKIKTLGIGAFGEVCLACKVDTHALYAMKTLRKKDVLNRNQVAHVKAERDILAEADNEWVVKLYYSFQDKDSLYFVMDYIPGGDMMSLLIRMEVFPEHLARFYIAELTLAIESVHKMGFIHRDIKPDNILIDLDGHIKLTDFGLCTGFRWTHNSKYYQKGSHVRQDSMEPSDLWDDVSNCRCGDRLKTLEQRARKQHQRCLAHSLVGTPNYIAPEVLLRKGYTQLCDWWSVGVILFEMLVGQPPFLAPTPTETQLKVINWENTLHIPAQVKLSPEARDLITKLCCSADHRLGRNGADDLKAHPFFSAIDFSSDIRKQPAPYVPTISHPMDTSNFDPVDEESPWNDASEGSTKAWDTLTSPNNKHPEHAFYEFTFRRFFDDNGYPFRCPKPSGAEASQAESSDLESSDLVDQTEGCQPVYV
UniProt Q9UBE8: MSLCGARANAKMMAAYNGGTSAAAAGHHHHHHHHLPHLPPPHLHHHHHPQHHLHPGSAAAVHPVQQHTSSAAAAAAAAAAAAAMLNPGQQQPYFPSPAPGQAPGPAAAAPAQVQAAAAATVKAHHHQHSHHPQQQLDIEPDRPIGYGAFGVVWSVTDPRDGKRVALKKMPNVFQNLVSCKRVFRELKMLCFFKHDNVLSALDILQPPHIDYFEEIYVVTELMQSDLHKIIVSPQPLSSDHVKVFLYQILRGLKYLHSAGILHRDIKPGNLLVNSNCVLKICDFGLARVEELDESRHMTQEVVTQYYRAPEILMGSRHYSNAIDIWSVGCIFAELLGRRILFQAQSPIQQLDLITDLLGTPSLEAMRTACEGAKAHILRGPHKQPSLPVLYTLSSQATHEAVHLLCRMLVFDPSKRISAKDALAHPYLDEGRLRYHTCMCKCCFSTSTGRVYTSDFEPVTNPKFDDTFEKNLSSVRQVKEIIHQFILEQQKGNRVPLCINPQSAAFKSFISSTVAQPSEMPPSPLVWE
UniProt Q13164: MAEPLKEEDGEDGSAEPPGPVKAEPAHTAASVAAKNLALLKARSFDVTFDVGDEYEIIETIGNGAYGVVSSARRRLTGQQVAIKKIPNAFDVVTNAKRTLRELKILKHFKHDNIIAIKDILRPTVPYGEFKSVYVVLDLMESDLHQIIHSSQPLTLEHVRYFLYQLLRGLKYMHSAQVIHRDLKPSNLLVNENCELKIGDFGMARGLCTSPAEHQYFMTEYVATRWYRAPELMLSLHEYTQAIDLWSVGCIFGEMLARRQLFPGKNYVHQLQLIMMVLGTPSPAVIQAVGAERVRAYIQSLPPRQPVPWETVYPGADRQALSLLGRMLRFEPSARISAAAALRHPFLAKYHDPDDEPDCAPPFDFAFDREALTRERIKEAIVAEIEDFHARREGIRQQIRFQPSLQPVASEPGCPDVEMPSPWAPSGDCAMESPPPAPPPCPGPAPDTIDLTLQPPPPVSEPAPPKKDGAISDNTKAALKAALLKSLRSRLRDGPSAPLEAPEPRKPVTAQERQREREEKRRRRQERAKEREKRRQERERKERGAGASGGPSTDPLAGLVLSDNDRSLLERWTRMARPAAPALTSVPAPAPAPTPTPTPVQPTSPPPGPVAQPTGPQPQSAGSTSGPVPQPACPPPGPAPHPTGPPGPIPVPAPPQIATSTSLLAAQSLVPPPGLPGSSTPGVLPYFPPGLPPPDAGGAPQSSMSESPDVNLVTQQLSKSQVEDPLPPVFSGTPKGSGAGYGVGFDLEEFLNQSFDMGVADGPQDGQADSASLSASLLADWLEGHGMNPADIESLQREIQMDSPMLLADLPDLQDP
UniProt Q15418, 418-675 limits assumed: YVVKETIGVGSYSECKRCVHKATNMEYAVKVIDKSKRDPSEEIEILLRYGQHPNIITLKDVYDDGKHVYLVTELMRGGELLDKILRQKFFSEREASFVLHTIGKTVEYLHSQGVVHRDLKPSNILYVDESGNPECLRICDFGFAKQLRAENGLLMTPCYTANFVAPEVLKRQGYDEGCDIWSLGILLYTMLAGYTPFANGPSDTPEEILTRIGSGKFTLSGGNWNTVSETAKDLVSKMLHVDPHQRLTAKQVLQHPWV
UniProt Q16288, 32-839: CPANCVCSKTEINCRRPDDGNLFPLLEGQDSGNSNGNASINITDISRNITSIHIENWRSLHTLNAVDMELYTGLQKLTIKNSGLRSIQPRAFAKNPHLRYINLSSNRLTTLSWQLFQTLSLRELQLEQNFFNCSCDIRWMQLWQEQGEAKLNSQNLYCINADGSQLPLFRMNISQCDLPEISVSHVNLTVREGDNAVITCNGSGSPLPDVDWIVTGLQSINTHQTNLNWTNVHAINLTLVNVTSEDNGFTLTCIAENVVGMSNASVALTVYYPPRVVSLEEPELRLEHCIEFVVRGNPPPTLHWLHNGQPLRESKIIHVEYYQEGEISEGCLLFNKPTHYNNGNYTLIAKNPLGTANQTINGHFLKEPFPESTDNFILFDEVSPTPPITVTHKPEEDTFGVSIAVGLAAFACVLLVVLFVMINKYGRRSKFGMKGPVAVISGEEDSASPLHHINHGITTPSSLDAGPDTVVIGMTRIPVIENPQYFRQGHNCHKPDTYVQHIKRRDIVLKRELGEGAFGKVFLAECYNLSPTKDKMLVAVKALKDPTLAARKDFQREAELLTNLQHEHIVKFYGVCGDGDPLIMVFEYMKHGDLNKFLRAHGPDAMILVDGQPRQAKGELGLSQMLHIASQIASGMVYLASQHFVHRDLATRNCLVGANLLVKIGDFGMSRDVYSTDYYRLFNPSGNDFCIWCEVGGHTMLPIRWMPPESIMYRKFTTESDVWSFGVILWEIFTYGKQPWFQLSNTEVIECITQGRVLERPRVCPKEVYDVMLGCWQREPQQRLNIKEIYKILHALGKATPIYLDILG
UniProt Q9H3Y6: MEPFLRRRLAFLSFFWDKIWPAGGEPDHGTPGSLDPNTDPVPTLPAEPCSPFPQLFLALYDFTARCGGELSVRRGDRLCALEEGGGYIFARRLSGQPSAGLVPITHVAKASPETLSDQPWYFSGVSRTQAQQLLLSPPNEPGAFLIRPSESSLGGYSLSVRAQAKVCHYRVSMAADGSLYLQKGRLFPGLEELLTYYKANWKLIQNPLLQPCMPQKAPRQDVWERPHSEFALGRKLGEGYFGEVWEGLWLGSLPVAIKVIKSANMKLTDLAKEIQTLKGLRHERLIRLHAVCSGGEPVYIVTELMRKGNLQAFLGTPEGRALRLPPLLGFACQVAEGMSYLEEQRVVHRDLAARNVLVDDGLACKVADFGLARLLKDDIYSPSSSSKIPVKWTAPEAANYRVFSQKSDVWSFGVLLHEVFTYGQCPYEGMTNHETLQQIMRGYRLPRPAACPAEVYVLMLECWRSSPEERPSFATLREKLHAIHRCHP
UniProt O60331: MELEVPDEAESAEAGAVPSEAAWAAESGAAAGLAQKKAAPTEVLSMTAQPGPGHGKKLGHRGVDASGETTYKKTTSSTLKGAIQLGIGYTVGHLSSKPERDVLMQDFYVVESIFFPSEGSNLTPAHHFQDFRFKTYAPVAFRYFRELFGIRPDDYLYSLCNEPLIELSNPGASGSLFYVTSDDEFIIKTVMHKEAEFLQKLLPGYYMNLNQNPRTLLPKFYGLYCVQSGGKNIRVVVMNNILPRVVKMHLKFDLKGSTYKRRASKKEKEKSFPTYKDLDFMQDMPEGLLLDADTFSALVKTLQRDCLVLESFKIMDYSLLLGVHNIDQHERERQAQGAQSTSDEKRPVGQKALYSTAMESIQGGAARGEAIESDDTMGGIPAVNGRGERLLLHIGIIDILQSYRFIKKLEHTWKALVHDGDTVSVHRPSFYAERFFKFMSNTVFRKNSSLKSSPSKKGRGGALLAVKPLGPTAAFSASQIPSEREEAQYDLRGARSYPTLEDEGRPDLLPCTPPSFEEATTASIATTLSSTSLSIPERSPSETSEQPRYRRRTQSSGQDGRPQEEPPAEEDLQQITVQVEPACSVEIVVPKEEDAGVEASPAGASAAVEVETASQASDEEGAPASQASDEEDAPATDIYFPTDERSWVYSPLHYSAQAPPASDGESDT
UniProt Q8N752: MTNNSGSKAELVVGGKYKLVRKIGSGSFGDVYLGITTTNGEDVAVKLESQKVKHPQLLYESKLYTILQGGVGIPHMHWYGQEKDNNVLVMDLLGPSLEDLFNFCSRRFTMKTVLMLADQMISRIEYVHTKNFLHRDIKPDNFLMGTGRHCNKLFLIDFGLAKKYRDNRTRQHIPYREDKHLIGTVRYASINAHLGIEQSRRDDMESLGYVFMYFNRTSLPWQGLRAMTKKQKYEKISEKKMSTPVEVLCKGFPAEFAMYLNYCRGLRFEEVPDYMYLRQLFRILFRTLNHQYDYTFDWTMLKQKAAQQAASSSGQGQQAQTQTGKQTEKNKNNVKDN
UniProt Q96PN8: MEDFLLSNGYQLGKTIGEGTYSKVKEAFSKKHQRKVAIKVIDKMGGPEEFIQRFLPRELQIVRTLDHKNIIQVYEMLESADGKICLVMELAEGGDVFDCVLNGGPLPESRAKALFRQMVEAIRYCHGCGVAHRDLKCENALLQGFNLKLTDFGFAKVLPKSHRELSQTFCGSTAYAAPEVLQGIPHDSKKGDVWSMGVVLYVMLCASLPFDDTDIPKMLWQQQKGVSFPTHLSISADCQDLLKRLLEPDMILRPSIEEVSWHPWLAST
UniProt O94804: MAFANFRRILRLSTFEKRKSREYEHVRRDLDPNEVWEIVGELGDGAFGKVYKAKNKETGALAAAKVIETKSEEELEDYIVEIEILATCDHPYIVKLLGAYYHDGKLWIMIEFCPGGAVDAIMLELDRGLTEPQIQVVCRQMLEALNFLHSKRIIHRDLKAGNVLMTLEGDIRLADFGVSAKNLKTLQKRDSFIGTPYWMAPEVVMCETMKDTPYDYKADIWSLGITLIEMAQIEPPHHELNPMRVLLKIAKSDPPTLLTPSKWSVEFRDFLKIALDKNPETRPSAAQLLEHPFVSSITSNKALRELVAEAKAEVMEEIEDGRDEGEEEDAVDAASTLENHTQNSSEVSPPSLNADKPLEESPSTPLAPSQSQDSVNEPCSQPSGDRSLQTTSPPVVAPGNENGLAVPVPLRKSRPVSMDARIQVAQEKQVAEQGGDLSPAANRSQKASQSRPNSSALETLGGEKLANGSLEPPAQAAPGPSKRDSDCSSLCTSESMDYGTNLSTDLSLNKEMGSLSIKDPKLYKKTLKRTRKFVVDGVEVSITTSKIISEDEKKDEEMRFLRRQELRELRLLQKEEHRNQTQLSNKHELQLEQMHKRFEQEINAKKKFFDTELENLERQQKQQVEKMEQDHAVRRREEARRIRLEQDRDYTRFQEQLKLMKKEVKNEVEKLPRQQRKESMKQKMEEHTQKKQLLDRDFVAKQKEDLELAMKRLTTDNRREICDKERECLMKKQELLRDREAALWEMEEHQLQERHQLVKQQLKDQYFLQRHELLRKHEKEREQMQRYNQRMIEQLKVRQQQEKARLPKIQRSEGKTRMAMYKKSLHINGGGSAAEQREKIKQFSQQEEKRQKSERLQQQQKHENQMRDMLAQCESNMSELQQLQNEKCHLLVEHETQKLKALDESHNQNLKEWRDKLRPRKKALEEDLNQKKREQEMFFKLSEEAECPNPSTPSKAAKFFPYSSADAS
UniProt Q00532: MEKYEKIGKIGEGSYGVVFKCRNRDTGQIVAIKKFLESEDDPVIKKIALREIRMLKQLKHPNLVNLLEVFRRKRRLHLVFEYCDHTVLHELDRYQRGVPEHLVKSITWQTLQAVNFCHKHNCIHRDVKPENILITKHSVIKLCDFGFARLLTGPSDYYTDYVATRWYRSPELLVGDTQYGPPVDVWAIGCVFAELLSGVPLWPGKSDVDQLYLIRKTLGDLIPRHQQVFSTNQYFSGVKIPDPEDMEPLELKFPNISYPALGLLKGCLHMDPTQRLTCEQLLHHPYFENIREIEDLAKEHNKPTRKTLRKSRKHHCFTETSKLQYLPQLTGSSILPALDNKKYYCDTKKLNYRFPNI

Key:
Assay in all cases: biochemical
Settings in all cases: read-out: Percent Control
MAP3K1 = MAP3K1 (Homo sapiens, UniProt Q13233)
LATS2 = LATS2 (Homo sapiens, UniProt Q9NRM7)
PIK3C2B = PIK3C2B (Homo sapiens, UniProt O00750)
NLK = NLK (Homo sapiens, UniProt Q9UBE8)
EGFR = EGFR (Homo sapiens, UniProt P00533)
TRKA = TRKA (Homo sapiens, UniProt P04629)
HIPK4 = HIPK4 (Homo sapiens, UniProt Q8NE63)
AKT3 = AKT3 (Homo sapiens, UniProt Q9Y243)
SNARK = SNARK (Homo sapiens, UniProt Q9H093)
EPHB6 = EPHB6 (Homo sapiens, UniProt O15197)
ERK5 = ERK5 (Homo sapiens, UniProt Q13164)
[1] = biological target: RSK1(Kin.Dom.2-C-terminal) (Homo sapiens, UniProt Q15418)
AMPK-alpha1 = AMPK-alpha1 (Homo sapiens, UniProt Q13131)
EPHA6 = EPHA6 (Homo sapiens, UniProt Q9UF33)
DLK = DLK (Homo sapiens, UniProt Q12852)
TNNI3K = TNNI3K (Homo sapiens, UniProt Q59H18)
NEK2 = NEK2 (Homo sapiens, UniProt P51955)
TRKC = TRKC (Homo sapiens, UniProt Q16288)
[2] = biological target: RSK2(Kin.Dom.2-C-terminal) (Homo sapiens, UniProt P51812)
SRMS = SRMS (Homo sapiens, UniProt Q9H3Y6)
MEK2 = MEK2 (Homo sapiens, UniProt P36507)
FLT3(D835H) = FLT3(D835H) (Homo sapiens, UniProt P36888, D835H)
MYLK = MYLK (Homo sapiens, UniProt Q15746)
CDKL3 = CDKL3 (Homo sapiens, UniProt Q8IVW4)
LZK = LZK (Homo sapiens, UniProt O43283)
ACVR2B = ACVR2B (Homo sapiens, UniProt Q13705)
AURKB = AURKB (Homo sapiens, UniProt Q96GD4)
MEK6 = MEK6 (Homo sapiens, UniProt P52564)
[3] = biological target: RSK4(Kin.Dom.2-C-terminal) (Homo sapiens, UniProt Q9UK32)
PIP5K1C = PIP5K1C (Homo sapiens, UniProt O60331)
CAMK1G = CAMK1G (Homo sapiens, UniProt Q96NX5)
CSNK1A1L = CSNK1A1L (Homo sapiens, UniProt Q8N752)
NEK10 = NEK10 (Homo sapiens, UniProt Q6ZWH5)
FLT1 = FLT1 (Homo sapiens, UniProt P17948)
PIK3CG = PIK3CG (Homo sapiens, UniProt P48736)
CDK4 = CDK4 (Homo sapiens, UniProt P11802)
JNK2 = JNK2 (Homo sapiens, UniProt P45984)
TSSK3 = TSSK3 (Homo sapiens, UniProt Q96PN8)
PIK3CA(I800L) = PIK3CA(I800L) (Homo sapiens, UniProt P42336, I800L)
PAK6 = PAK6 (Homo sapiens, UniProt Q9NQU5)
p38-gamma = p38-gamma (Homo sapiens, UniProt P53778)
LOK = LOK (Homo sapiens, UniProt O94804)
CDKL1 = CDKL1 (Homo sapiens, UniProt Q00532)

Structure (SMILES): COc1cc2c(Nc3ccc(Cl)c(OC)n3)c(C#N)cnc2cc1OCCON1CCN(C)CC1 [16a, 4-((5-Chloro-6-methoxypyridin-2-yl)amino)-6-methoxy-7-(2-((4-methylpiperazin-1-yl)oxy)ethoxy)quinoline-3-carbonitrile]
- remaining activity at 1 µM (MAP3K1): 84%
- remaining activity at 1 µM (LATS2): 91%
- remaining activity at 1 µM (PIK3C2B): 100%
- remaining activity at 1 µM (NLK): 97%
- remaining activity at 1 µM (EGFR): 0.6%
- remaining activity at 1 µM (TRKA): 62%
- remaining activity at 1 µM (HIPK4): 2.5%
- remaining activity at 1 µM (AKT3): 100%
- remaining activity at 1 µM (SNARK): 7.2%
- remaining activity at 1 µM (EPHB6): 73%
- remaining activity at 1 µM (ERK5): 100%
- remaining activity at 1 µM [1]: 81%
- remaining activity at 1 µM (AMPK-alpha1): 31%
- remaining activity at 1 µM (EPHA6): 90%
- remaining activity at 1 µM (DLK): 11%
- remaining activity at 1 µM (TNNI3K): 30%
- remaining activity at 1 µM (NEK2): 50%
- remaining activity at 1 µM (TRKC): 100%
- remaining activity at 1 µM [2]: 100%
- remaining activity at 1 µM (SRMS): 11%
- remaining activity at 1 µM (MEK2): 0%
- remaining activity at 1 µM (FLT3(D835H)): 25%
- remaining activity at 1 µM (MYLK): 35%
- remaining activity at 1 µM (CDKL3): 76%
- remaining activity at 1 µM (LZK): 92%
- remaining activity at 1 µM (ACVR2B): 100%
- remaining activity at 1 µM (AURKB): 100%
- remaining activity at 1 µM (MEK6): 46%
- remaining activity at 1 µM [3]: 87%
- remaining activity at 1 µM (PIP5K1C): 55%
- remaining activity at 1 µM (CAMK1G): 29%
- remaining activity at 1 µM (CSNK1A1L): 4%
- remaining activity at 1 µM (NEK10): 100%
- remaining activity at 1 µM (FLT1): 61%
- remaining activity at 1 µM (PIK3CG): 97%
- remaining activity at 1 µM (CDK4): 100%
- remaining activity at 1 µM (JNK2): 97%
- remaining activity at 1 µM (TSSK3): 76%
- remaining activity at 1 µM (PIK3CA(I800L)): 100%
- remaining activity at 1 µM (PAK6): 99%
- remaining activity at 1 µM (p38-gamma): 97%
- remaining activity at 1 µM (LOK): 0.1%
- remaining activity at 1 µM (CDKL1): 70%
